Measurements published in US20250059185A1 (Hoffmann-La Roche Inc., priority 2021, published 2025).

By UniProt entry, the sequences of proteins in these tests, tags left out.
UniProt Q99685, whole entry, species assumed: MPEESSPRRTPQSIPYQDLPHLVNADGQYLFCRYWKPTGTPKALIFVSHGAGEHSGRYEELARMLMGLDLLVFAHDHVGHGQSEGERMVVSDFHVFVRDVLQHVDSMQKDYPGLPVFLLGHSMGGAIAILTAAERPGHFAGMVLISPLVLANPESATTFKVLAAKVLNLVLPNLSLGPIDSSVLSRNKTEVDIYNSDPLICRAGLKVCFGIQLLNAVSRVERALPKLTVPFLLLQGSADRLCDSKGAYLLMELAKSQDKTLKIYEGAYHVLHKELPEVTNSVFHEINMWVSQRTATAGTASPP

Molecular target: MAGL (Homo sapiens (Human), UniProt Q99685)
Assay: 2-AG assay (MAGL inhibitory activity, hydrolysis of 2-arachidonoylglycerol followed by mass spectrometry)
Format: biochemical
Conditions: 50 pM MAGL protein, 15 min pre-incubation, 30 min incubation at RT
Text: Compounds of formula (II) were profiled for MAGL inhibitory activity by determining the enzymatic activity by following the hydrolysis of the natural substrate 2-arachidonoylglycerol (2-AG) resulting in arachidonic acid, which can be followed by mass spectrometry. This assay is hereinafter abbreviated “2-AG assay”.
Compounds of formula (II) were profiled for MAGL inhibitory activity by determining the enzymatic activity by following the hydrolysis of the natural substrate 2-arachidonoylglycerol (2-AG) resulting in arachidonic acid, which can be followed by mass spectrometry. This assay is hereinafter abbreviated “2-AG assay”. The 2-AG assay was carried out in 384 well polypropylene assay plates. Compound dilutions were made in 100% DMSO in a polypropylene plate in 3-fold dilution steps to give a final concentration range in the assay from 12.5 μM to 0.8 pM. Compound dilutions were added to MAGL protein in assay buffer (50 mM TRIS, 1 mM EDTA, 0.01% (v/v) Tween-20, 2.5% (v/v) DMSO). After shaking, the plate was incubated for 15 min at RT. To start the reaction, 2-arachidonoylglycerol in assay buffer was added. The final concentrations in the assay was 50 pM for MAGL protein and 8 pM 2-arachidonoylglyerol. […] The activity of the compounds was calculated based on the ratio of intensities [arachidonic acid/d8-arachidonic acid].

| Substance | pIC50 |
| --- | --- |
| 4-[2-chloro-5-fluoro-3-[(7R)-3-[3-fluoro-5-[[methyl(dioxo)-λ^6-phosphanyl]methyl]phenyl]-2,7-dimethyl-5,7-dihydro-4H-pyrazolo[3,4-c]pyridine-6-carbonyl]phenyl]-1H-pyrrole-2-carbonitrile [Example 83] | 5.35 |
| 4-[2-chloro-5-fluoro-3-[(7S)-3-[3-fluoro-5-[[methyl(dioxo)-λ^6-phosphanyl]methyl]phenyl]-2,7-dimethyl-5,7-dihydro-4H-pyrazolo[3,4-c]pyridine-6-carbonyl]phenyl]-1H-pyrrole-2-carbonitrile [Example 82] | 7.01 |

pIC50: −log10 of the molar value.
